The test system of this assay is NIH3T3 cells. The experiment in a line: Cell uptake experiments (FACS).

Turning to `CC[C@H](C)[C@H](NC(=O)[C@H](Cc1ccc(OP(=O)(O)O)cc1)NC(=O)[C@H](CC(N)=O)NC(=O)[C@H](CC(C)C)NC(=O)CNC(=O)c1ccc2c(c1)C(=O)OC21c2ccc(O)cc2Oc2cc(O)ccc21)C(=O)N[C@@H](CC(=O)O)C(=O)N[C@@H](CC(C)C)C(=O)N[C@@H](CC(=O)O)C(=O)N[C@@H](Cc1c[nH]c2ccccc12)C(N)=O`, the “cell uptake, non-covalent strategy” value (mixed with Pep1 CPP) was “efficiently obtained”. Moreover, for the setting “no CPP, 120 minutes”, the spontaneous cell uptake result is reported as “minimal”.

These data come from patent US20230192765A1, “PEPTIDES TARGETING SHP2 AND USES THEREOF” (UNIVERSITÀ DEGLI STUDI DI ROMA "TOR VERGATA", priority 2020, published 2023).
